Legend:
KRAS(G12D)/SOS1 = target: T1, KRAS(G12D)/SOS1 (Homo sapiens, UniProt P01116, G12D); test: KRAS(G12D)/SOS1 homogeneous time-resolved fluorescence (HTRF) assay; format: binding
T1 construct: purchased Cisbio 63ADK000CB16PEG
Experimental: The test compound was mixed and incubated with reaction components, incubated in a sealed plate at 4° C. for 3 hr and fluorescence was measured using a PerkinElmer Envision plate reader.

Chains of the proteins cited; added tags and fusions are not shown. Residues count along the entry.
UniProt P01116, 1-188 isoform P01116-2 G12D: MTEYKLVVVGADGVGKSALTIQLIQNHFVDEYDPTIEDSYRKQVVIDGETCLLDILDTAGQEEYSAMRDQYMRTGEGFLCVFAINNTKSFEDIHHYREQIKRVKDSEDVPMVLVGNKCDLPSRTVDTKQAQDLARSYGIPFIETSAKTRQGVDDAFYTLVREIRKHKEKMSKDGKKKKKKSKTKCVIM

KRAS(G12D) = target: T2, KRAS(G12D) (Homo sapiens, UniProt P01116, G12D); test: SW1990 WB assay (degradation DC50, Dmax); format: cell-based; settings: read-out: WB data SW1990 DC50; Western blot, SW1990 cells
T2 construct: endogenous in cells; host or cells: SW1990

C#Cc1cccc2cc(O)cc(-c3ncc4c(N5CC6CCC(C5)N6)nc(OCC5(CN6CCN(CC7CCN(CC(=O)N[C@@H](C(=O)N8C[C@@H](O)C[C@@H]8C(=O)NCc8ccc(-c9scnc9C)cc8)C(C)(C)C)CC7)CC6)CC5)nc4c3F)c12 [Compound 82]
IC50 (KRAS(G12D)/SOS1): < 100 nM | DC50 (KRAS(G12D)): < 100 nM
